Results from patent US5384243A (dated 1995).

Chains of the proteins cited; added tags and fusions are not shown.
UniProt P08172, whole entry: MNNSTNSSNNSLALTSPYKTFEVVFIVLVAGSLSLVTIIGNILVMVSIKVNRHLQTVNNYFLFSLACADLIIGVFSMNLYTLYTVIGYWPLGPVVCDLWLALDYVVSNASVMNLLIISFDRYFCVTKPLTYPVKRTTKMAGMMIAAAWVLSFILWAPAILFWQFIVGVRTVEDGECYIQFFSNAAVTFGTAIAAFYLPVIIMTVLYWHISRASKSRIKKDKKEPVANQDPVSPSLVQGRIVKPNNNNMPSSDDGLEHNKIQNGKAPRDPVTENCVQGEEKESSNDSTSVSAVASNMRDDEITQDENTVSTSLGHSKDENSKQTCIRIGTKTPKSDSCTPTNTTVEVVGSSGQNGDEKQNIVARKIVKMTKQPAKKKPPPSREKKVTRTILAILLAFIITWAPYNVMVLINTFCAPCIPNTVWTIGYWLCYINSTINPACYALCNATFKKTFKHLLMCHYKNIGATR
UniProt P08173, whole entry: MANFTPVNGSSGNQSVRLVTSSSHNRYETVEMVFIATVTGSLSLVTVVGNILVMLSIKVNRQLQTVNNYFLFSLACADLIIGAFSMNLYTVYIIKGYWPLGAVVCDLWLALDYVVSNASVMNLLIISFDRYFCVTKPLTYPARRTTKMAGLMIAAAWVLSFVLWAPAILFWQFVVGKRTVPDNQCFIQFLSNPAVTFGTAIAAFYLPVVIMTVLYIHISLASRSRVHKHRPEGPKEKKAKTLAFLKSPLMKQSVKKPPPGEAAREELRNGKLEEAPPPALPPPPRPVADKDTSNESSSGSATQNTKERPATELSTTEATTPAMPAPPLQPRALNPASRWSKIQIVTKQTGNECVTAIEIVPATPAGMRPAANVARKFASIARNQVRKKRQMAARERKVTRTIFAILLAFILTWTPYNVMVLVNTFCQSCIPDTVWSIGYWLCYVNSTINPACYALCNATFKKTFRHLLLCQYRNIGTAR

Tests used:
m2 mACHR [1] = target: T1, m2 mACHR (Homo sapiens, UniProt P08172); settings: nih/3t3 cells
m2 mACHR [2] = target: T1, m2 mACHR
m4 mACHR [3] = target: T2, m4 mACHR (Homo sapiens, UniProt P08173); settings: nih/3t3 cells
m4 mACHR [4] = target: T2, m4 mACHR

C[N+](C)(C)CCOC(N)=O [carbachol]
PI Hydrolysis Maximal activation (m2 mACHR [1]): 1.2 fold
Transformation Maximal transportation (m2 mACHR [2]): 0
PI Hydrolysis Maximal activation (m4 mACHR [3]): 1.3 fold
Transformation Maximal transportation (m4 mACHR [4]): 0
